Drawing on paper PMC9062740 (2022), this text covers Kd for 1 molecule.

The test deals with filamentous actin (F-actin) polymerized from rabbit muscle G-actin (rabbit, UniProt P68135 1-377).

B1: CLIP-170 S2-CG2-S3 fragment (156-350) (domain or fragment)
chain: MVSSSPSTPSNIPQKPSQPAAKEPSATPPISNLTKTASESISNLSEAGSIKKGERELKIGDRVLVGGTKAGVVRFLGETDFAKGEWCGVELDEPLGKNDGAVAGTRYFQCQPKYGLFAPVHKVTKIGFPSTTPAKAKANAVRRVMATTSASLKRSPSASSLSSMSSVASSVSSRPSRTGLLTETSSRYARKISGT
B1: the Kd worked out at 7.3 µM.

One may read the Kd as the concentration at which binding is half-saturated.
